Measured values: patent US20020054880A1, “Anti-inflammatory, tolerogenic and immunoinhibiting properties of carbohydrate binding-peptides” (priority 1992, published 2002)

Sequences of proteins named here, by UniProt entry; tags and fusion partners are left off. A change or cut given only in a name is not applied to a line headed by its entry.
UniProt P04978: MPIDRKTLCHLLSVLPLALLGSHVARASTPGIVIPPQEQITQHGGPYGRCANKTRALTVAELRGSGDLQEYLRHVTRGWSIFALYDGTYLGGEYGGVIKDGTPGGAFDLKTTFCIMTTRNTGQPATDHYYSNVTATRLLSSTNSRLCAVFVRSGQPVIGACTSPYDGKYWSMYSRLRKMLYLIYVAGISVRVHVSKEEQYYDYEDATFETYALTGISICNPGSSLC
UniProt P04979: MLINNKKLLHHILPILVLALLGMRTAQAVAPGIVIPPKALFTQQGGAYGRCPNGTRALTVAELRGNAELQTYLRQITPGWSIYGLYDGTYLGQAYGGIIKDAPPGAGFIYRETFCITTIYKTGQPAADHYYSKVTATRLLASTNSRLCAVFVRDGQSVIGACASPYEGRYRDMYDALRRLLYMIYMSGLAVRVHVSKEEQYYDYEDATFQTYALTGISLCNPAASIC

Target: PT immobilized in microtiter wells (Bordetella pertussis, UniProt P04978+P04979)
Settings: read-out: IC50 for inhibition of the binding of ACS2P1-biotin to PT; n=2; ACS2P1-biotin 10 μg/ml

fetuin [reference compound] gave an IC50 of 50 µM.
